Assay results from EP3885436A1, “POLYPEPTIDES WITH PEROXIDASE ACTIVITY” (Technische Universität Wien, priority 2020, dated 2021).
Read-outs that look alike come from different tables or passages of the source.

By UniProt entry, the sequences of proteins in these tests, tags left out. Residues count along the entry.
UniProt P00433, 31-338 N43D/N87S/P176Q/N205S/N285D/N298D/N305K: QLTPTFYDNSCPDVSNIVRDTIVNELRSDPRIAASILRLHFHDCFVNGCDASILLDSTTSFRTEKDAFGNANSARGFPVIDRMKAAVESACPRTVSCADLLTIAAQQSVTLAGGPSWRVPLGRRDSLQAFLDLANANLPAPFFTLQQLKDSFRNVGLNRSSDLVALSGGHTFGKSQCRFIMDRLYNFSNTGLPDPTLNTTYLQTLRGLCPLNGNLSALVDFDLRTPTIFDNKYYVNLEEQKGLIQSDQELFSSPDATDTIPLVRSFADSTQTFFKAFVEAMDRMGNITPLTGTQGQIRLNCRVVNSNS
UniProt P00433, 31-338 N43D/N87S/N205S/N285D/N298D: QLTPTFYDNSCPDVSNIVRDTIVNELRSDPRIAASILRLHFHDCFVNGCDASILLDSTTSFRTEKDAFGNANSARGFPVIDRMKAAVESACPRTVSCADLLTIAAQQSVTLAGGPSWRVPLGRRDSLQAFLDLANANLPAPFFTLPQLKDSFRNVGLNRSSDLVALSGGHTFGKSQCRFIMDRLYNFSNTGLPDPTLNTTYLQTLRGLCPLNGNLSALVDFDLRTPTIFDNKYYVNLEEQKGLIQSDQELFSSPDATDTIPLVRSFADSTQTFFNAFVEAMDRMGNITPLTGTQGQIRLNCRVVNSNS

Legend:
Type in all cases: biochemical
[1] = biological target: T1, horseradish peroxidase, wild-type HRP (rHRP, variant C1A, SEQ ID NO: 2), produced in E. coli (Armoracia rusticana, UniProt P00433); assay: Enzyme kinetic parameters, 96-well plate assay; conditions: substrate ABTS (0.1 - 7 mM), 1 mM H2O2, 50 mM phosphate-citrate buffer pH 5, 30 °C; Table 5
T1 construct: made in house
T1 sequence (P00433 with tags, fused parts or gaps): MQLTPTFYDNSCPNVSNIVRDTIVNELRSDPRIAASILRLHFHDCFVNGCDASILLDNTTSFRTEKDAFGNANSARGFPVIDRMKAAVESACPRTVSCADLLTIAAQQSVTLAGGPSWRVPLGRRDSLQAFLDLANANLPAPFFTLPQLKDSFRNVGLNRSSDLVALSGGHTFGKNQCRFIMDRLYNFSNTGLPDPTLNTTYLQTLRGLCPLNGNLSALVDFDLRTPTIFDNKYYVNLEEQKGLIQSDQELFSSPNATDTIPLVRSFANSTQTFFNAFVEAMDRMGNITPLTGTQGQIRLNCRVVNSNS
Experimental: (§1) Plant HRP Type VI-A (Cat. No.: P6782) was obtained from Sigma-Aldrich (St. Louis, MO, USA). All HRP variants produced in E. coli consisted of the sequence as set forth in SEQ ID NO: 2 with the indicated mutations unless specified otherwise.
(§2) For measurements with 3,3',5,5'-tetramethylbenzidine (TMB) as substrate, the reaction mixture in each well of the 96-well plate contained a saturating hydrogen peroxide concentration of 1 mM and varying TMB concentrations (20 - 550 µM) in 50 mM phosphate-citrate buffer pH 5 in a final volume of 200 µL. Protein sample (5 µL) was mixed with 175 µl TMB-buffer mixture and the reaction was started with 20 µl hydrogen peroxide solution (10 mM). The increase in absorption was followed at 652 nm for 60s at 30 °C in a Tecan Infinite M200 PRO instrument. The kinetic parameters were calculated using Sigma Plot software (Systat Software INC., San Jose, CA, USA) and an extinction coefficient of ε652 = 39 mM^-1 cm^-1 (see Josephy, et al. "The horseradish peroxidase-catalyzed oxidation of 3, 5, 3', 5'-tetramethylbenzidine. Free radical and charge-transfer complex intermediates." Journal of Biological Chemistry 257.7 (1982): 3669-3675).
The increase in absorption was followed at 420 nm for 120 s at 30 °C in a Tecan Infinite M200 PRO instrument. […]

[2] = biological target: T2, horseradish peroxidase variant HRP N13D/N57S/P146Q/N175S/N255D/N268D/N275K (mHRP, SEQ ID NO: 4), produced in E. coli (Armoracia rusticana, UniProt P00433, N205S/N285D/N298D/N305K/N43D/N87S/P176Q); conditions: substrate ABTS (0.1 - 7 mM), 1 mM H2O2, 50 mM phosphate-citrate buffer pH 5, 30 °C
T2 construct: made in house
Experimental: as §1, §2
(§3) The increase in absorption was followed at 420 nm for 120 s at 30 °C in a Tecan Infinite M200 PRO instrument. The kinetic parameters were calculated using Sigma Plot software (Systat Software INC., San Jose, CA, USA) and an extinction coefficient of ε420 = 36 mM^-1 cm^-1 (see Childs and Bardsley. "The steady-state kinetics of peroxidase with 2, 2'-azino-di-(3-ethyl-benzthiazoline-6-sulphonic acid) as chromogen." Biochemical Journal 145.1 (1975): 93-103).
as §3

[3] = biological target: T3, horseradish peroxidase variant HRP N13D/N57S/N175S/N255D/N268D, produced in E. coli (Armoracia rusticana, UniProt P00433, N205S/N285D/N298D/N43D/N87S); conditions: substrate ABTS (0.1 - 7 mM), 1 mM H2O2, 50 mM phosphate-citrate buffer pH 5, 30 °C; Table 4
T3 construct: made in house
Experimental: as §1, §2, §3, §3

[4] = biological target: T4, plant-derived HRP (pHRP), Plant HRP Type VI-A, horseradish peroxidase (Armoracia rusticana, UniProt P00433); assay: Enzyme kinetic parameters, 96-well plate assay; conditions: substrate ABTS (0.1 - 7 mM), 1 mM H2O2, 50 mM phosphate-citrate buffer pH 5, 30 °C; Table 5
T4 construct: The plant-derived enzyme undergoes post-translational modifications, resulting inter alia in a free N-terminus without an appended methionine; purchased Sigma-Aldrich P6782; host or cells: extracted from the plant
T4 sequence (P00433 31-338 limits assumed): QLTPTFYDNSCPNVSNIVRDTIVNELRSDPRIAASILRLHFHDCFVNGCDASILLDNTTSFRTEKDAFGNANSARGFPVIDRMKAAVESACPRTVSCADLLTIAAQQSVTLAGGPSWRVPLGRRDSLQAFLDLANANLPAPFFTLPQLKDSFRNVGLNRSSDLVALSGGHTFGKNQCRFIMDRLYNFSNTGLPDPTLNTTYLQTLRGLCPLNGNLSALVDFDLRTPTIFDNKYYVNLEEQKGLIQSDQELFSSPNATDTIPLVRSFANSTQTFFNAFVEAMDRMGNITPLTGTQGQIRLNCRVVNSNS
Experimental: as §1, §2
Protein sample (5 µL) was mixed with 175 µl ABTS-buffer mixture and the reaction was started with 20 µl hydrogen peroxide solution (10 mM). […]

## CCn1c(=NN=c2sc3cc(S(=O)(=O)O)ccc3n2CC)sc2cc(S(=O)(=O)O)ccc21 [ABTS, 2,2'-azino-bis(3-ethylbenzthiazoline-6-sulfonic acid)]
[1]
  kcat: 823 ± 25 s⁻¹
[2]; Table 4 (Example 3)
  kcat: 716 ± 58 s⁻¹
[2]; Table 5 (Example 4)
  kcat: 702 ± 56 s⁻¹
[3]
  kcat: 786 ± 74 s⁻¹
[4]
  Km: 700 ± 140 µM
  kcat: 734 ± 41 s⁻¹
